From patent US11370784B2 (MISSION THERAPEUTICS LIMITED, priority 2016, dated 2022)

Chains of the proteins cited; added tags and fusions are not shown. Residues count along the entry.
UniProt Q70CQ3, 57-517 limits assumed: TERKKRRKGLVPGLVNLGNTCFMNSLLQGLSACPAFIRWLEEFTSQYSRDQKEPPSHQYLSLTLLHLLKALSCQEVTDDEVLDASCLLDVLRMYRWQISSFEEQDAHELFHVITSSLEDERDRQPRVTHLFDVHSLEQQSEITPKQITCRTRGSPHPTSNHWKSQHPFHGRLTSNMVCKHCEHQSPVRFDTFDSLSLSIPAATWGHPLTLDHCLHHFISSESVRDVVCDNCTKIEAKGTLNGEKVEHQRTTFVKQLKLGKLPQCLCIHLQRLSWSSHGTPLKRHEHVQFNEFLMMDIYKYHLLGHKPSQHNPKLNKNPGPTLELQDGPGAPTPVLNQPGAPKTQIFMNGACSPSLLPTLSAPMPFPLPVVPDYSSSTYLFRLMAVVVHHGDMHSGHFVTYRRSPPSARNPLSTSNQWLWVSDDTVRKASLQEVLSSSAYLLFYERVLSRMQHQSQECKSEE

Target: USP30 (Homo sapiens (Human), UniProt Q70CQ3)
Test: USP30 biochemical IC50 assay
Conditions: read-out: IC50 range; fluorescence polarisation, TAMRA labelled peptide linked to ubiquitin as substrate; enzyme and compound incubated 30 min at room temp

- IC50: 0.1 to 1 µM
SMILES: N#CN1CCC[C@](F)(C(=O)Nc2ccc(-c3ccnc4cn[nH]c34)cn2)C1
